Screening results deposited in PubChem by National Center for Advancing Translational Sciences (NCATS).
Rows were chosen to be rich in hits. Some 2.4% of all compounds tested hit in one or more screens of this group.
PTAP TSG101 blk = blocks PTAP/TSG101 interaction to inhibit HIV-1 budding | Fluorescence polarization, FITC-PTAP peptide / Tsg101 binding | Potency, µM (titrated, usually from 115 µM), usual class: inhibitors | 340,000 tested, under 10 active; active = well fitted inhibition curve with a large enough effect in the main read-out, with a control signal flat, not every such curve was filed as active; inconclusive = small, poorly fitted or top-dose-only effect, or effect the other way, or a change in a side signal; inactive = no such curve, though single readings can be large or run the other way
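Compounds were pin-transferred onto Tsg101 binding domain (10 uM final) in HEPES pH 7.5 buffer, then FITC-PTAP peptide was added at 50 nM final. After 20 min at RT, polarization reported peptide displacement across a qHTS concentration series.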
Rango release inh = inhibition of RanGTP-driven Rango-importin beta dissociation | O95149+P62826 | Biochemical FRET Rango-importin beta, RanGTP-induced dissociation | Potency, µM (highest dose often 46.1 µM) | 0.071% of 340,000 active; calls by dose curve; also: nearly all actives have a fitted effect of over 45% in size
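Rango/importin beta premix (0.1/0.25 uM final), PBS + 1 mM DTT + 0.02% Tween-20 + 0.1% BSA; cpd 5 min RT; FRET pre-read; + RanGTP-RCC1 (0.6 uM Ran, 2 mM GTP, 0.2 uM RCC1); 45 min RT; FRET post-read, ex 430, em 486/530 nm.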
TDP1 inh = TDP1 (human) enzyme inhibition. AID 485290. Q9NUW8. Potency, µM (doses to about 130 µM), actives largely listed as inhibitors. 0.28% of 350,000 active. recombinant TDP1, AlphaScreen DNA substrate cleavage; also: nearly all actives have a fitted effect of over 40% in size
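Signal: AlphaScreen proximity between streptavidin donor and anti-FITC acceptor beads on intact substrate. Reaction: Tdp1 1 nM, substrate 15 nM final, 5 min RT after 15 min compound preincubation.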
Rango complex inh = inhibitors of Rango-importin beta complex formation. Potency, µM (doses to about 92.2 µM). 0.031% of 340,000 active. Rango CFP/YFP FRET sensor + importin beta, 45 min. Q14974; calls by dose curve; also: nearly all actives have a fitted effect of over 15% in size
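FRET biosensor Rango (snurportin 1 IBB between N-terminal EYFP and C-terminal Cerulean), 50 nM in PBS/1 mM DTT/0.02% Tween-20/0.1% BSA, preincubated 5 min RT with compound; 0.125 microM importin beta added, 45 min RT, CFP/YFP FRET ratio read.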
ClpP mod = qHTS Assay for Activators of ClpP | ATP-dependent Clp protease proteolytic subunit (Bacillus subtilis (strain 168)), P80244 | purified B. subtilis ClpP, FRET peptide cleavage, 20 min | Potency, µM (highest dose often 57.5 µM) | 1.9% of 340,000 active | AID 651965, 2013; active = well fitted falling curve with a large enough effect; inconclusive = small, poorly fitted or top-dose-only effect; inactive = no such curve, though single readings can be large or run the other way; also: the source files actives as falling curves though it sought activators and does not explain the sign; nearly all actives have a fitted effect of over 65% in size
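Purified B. subtilis ClpP, 10 microg/mL final in Tris/HCl pH8 with KCl, BSA, glycerol and Tween-20, cleaved an Abz/nitrotyrosine-quenched decapeptide. Fluorescence (ex 320, em 430) was read at 0 and 20 min at room temperature. Delta was normalized to 5.8 microM ADEP and DMSO/no-enzyme controls.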
12-LOX inh = inhibitors of human 12S-lipoxygenase ALOX12; P18054; purified 12hLO, xylenol orange hydroperoxide absorbance; Potency, µM (series often up to 108 µM), usual class: inhibitors; 1.1% of 580,000 active
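Purified human 12hLO at 150 nM in 25 mM Hepes, 0.01% Triton X-100, pH 7.0, preincubated 15 min at room temperature with compound. Reaction started with 40 uM arachidonic acid, 30 min at room temperature. Hydroperoxide measured by Fe-xylenol orange, 573/405 nm absorbance ratio.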
Numbers stand for hits; i = inactive; ? = inconclusive; nt = no result. Unless noted, calls follow the shape of the dose curve; as a rule, active = well fitted curve in the direction sought with a large enough effect; inconclusive = small, poorly fitted or top-dose-only effect, or another doubt; inactive = no such curve, though single readings can be large; an effect the other way counts as inactive or inconclusive.

The chains behind the UniProt entries cited, without tags or fusion partners.
ATP-dependent Clp protease proteolytic subunit (Bacillus subtilis (strain 168)), P80244, UniProt P80244, whole entry, looked up: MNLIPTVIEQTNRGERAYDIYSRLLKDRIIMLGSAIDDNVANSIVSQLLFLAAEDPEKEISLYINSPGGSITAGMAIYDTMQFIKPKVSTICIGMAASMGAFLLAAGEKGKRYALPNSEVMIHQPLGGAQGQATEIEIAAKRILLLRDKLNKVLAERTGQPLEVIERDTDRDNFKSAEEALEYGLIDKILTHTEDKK

SMILES	PTAP TSG101 blk	Rango release inh	TDP1 inh	Rango complex inh	ClpP mod	12-LOX inh
CC(C)(C)CC(=O)NC[C@H]1OC[C@@H](N(Cc2ccccc2)Cc2ccccc2)[C@@H]1O	nt	nt	nt	nt	nt	i
CC(O)(c1ccc(F)c(F)c1)c1nc(/C=C/c2ccc(C(F)(F)F)cc2)cs1 (stereo unspecified)	nt	nt	nt	nt	?	35µM
CC(O)(c1ccc(F)c(F)c1)c1nc(-c2csc3ccccc23)cs1 (stereo unspecified)	nt	nt	nt	nt	i	45µM
CCC(C)NC(=O)c1ccc2c(c1)CC(=O)N2Cc1ccccc1 (stereo unspecified)	nt	nt	nt	nt	nt	i
COc1ccccc1-c1coc2cc(OCc3ccc(C)cc3)ccc2c1=O	nt	nt	nt	nt	nt	i
O=C(O)CN1C(=O)c2cccc3cccc(c23)C1=O	nt	nt	i	nt	nt	i
CC(=O)N1C(=O)c2cccc3cccc(c23)C(=O)N1C(C)=O	i	i	i	i	25µM	nt
Cn1c(N)c(C(=O)COC(=O)CNS(=O)(=O)c2ccc(Cl)c(Cl)c2)c(=O)n(C)c1=O	i	i	i	i	32µM	i
Nc1c(C(=O)O)sc2nc(-c3ccccc3)cc(-c3ccc(Cl)cc3)c12	?	i	71µM	i	nt	?
COc1ccc(C(=O)N(C)Cc2ccccn2)cc1OC1CCN(C(C)C)CC1	i	i	i	i	28µM	i
Cc1ccc(C(=O)N/N=C/c2cccnc2)s1	nt	nt	nt	nt	nt	i
CN(C)CCCNC(=O)c1cn2ccnc(-c3ccc(F)cc3)c2n1	nt	nt	nt	nt	nt	i
CCC1c2ccsc2CCN1C(=O)C1CCN(S(=O)(=O)c2ccc(C#N)cc2)CC1 (stereo unspecified)	nt	nt	nt	nt	nt	i
CCOc1ccc(NC(=O)C23CCCC=C2N(CC)C(=O)CC3)cc1 (stereo unspecified)	nt	nt	nt	nt	nt	i
CCOC(=O)Cc1c(C)nc2c(-c3cccc(Br)c3)c[nH]n2c1=O	i	i	i	i	14µM	i
CCOC(=O)Cc1c(C)nc2c(C#N)c[nH]n2c1=O	nt	i	i	i	?	i
CCOC(=O)Cc1c(C)nc2c(-c3ccc(Cl)cc3)c(C)[nH]n2c1=O	i	i	i	i	14µM	i
Cc1ccc(O)c(-c2cc3ccccc3[nH]2)c1	i	i	i	i	14µM	?
Cc1ccc(-c2cc3ccccc3[nH]2)c(C)c1	nt	nt	nt	nt	nt	i
CNc1ccccc1C(=O)OCC(=O)Nc1ccc2c(c1)OCO2	i	i	i	i	28µM	i
O=C(Nc1ccc2c(c1)OCO2)c1ccccn1	i	i	i	i	i	5.6µM
COc1ccccc1Nc1nnc(SCC(=O)N2CCCC2=O)s1	i	i	i	?	i	i
CCc1ccc(Nc2nnc(SCC(=O)NC(=O)CN3CCCC3=O)s2)cc1	i	i	18µM	i	i	i
COc1ccc(CNc2ncc(-c3ccccc3)n2C)cc1	i	i	nt	i	i	?
COc1ccc(CNc2ncc(-c3ccccc3)n2C)c(OC)c1OC	i	i	nt	i	i	2µM
SMILES	PTAP TSG101 blk	Rango release inh	TDP1 inh	Rango complex inh	ClpP mod	12-LOX inh
COc1ccc(CNc2ncc(-c3ccccc3)n2C)c2ccccc12	i	i	nt	i	i	10µM
O=C1CCCCCN1C1CCN([S+](=O)([O-])c2cccc(C(F)(F)F)c2)CC1	nt	nt	nt	nt	nt	i
CC1CCN(c2nc(-c3ccccc3)cc(C(F)(F)F)n2)CC1	i	i	i	i	?	i
Cc1ccc(-c2cc(C(F)F)nc(N3CCC(C)CC3)n2)cc1	i	i	i	i	25µM	i
CC(=O)Oc1ccc(C2OC(=O)c3ccccc3N2C(C)=O)cc1 (stereo unspecified)	i	?	i	i	25µM	i
COCCN1CCN(c2cc(-c3ccccc3)nc3cc(-c4cccc(F)c4)nn23)CC1	i	?	i	?	25µM	?
Cc1ccc(NC(=O)c2cc(N3C(=O)C=CC3=O)ccc2Cl)cc1C	i	i	i	i	i	3.5µM
Cc1ccc(NC(=O)c2cc(NC(=O)c3ccco3)ccc2N2CCOCC2)cc1	i	i	i	i	i	i
Cc1ccc(NC(=O)c2cc(N3C(=O)C=CC3=O)ccc2N2CCOCC2)cc1	i	i	i	i	nt	10µM
Cc1ccc(NC(=O)c2cc(-n3cnnc3)ccc2Cl)cc1	i	i	i	i	i	i
CC(C)(C)OC(=O)NCCC(=O)Oc1ccc2ccc(=O)oc2c1	i	9.2µM	i	?	i	nt
CC(NC(=O)OC(C)(C)C)C(=O)Oc1ccc2ccc(=O)oc2c1 (stereo unspecified)	i	?	i	?	i	i
N=C1S/C(=C\c2ccc(-c3ccccc3C(=O)O)o2)C(=O)N1c1ccc2c(c1)OCO2	i	?	i	?	nt	14µM
COc1ccccc1N1C(=N)S/C(=C\c2ccc(-c3ccccc3C(=O)O)o2)C1=O	i	?	11µM	?	i	i
CCOC(=O)CN1C(=O)S/C(=C\c2ccc(-c3cccc(C(=O)O)c3C)o2)C1=O	i	?	nt	?	nt	i
Cn1c2ccccc2n2c(=O)c(Cl)c(-c3ccccc3)c(C#N)c12	i	?	i	?	28µM	i
COc1ccc(-c2ccc(Cn3ccnc3)cn2)c2ccc(C)nc12	nt	nt	nt	nt	nt	i
O=C(O)CCC(=O)Nc1ccccc1C(=O)NCCc1ccccc1	i	i	i	i	14µM	i
Cc1cc(C(=O)C(C)OC(=O)C2=NNC(=O)CC2)c(C)n1-c1ccc(OC(F)F)cc1 (stereo unspecified)	i	i	i	i	20µM	i
Cc1cc(C(=O)COC(=O)C2=NNC(=O)CC2)c(C)n1-c1ccc(OC(F)F)cc1	i	i	i	i	i	?
CCOCCCNC(=S)NCCCNc1nc2cc3c(cc2cc1C#N)OCO3	i	?	i	?	10µM	i
COCCNC(=S)NCCCNc1nc2cc3c(cc2cc1C#N)OCO3	i	?	i	?	14µM	i
Cn1c(=O)c2nc(Cl)c(-c3ccccc3)nc2n(C)c1=O	i	i	i	i	25µM	i
NS(=O)(=O)c1cccc(NC(=O)CCCNC(=O)c2ccc(Cl)cc2)c1	i	i	i	16µM	nt	i
CC(=O)c1cccc(NC(=O)CCCNC(=O)c2ccc(Cl)cc2)c1	i	i	i	?	nt	i
SMILES	PTAP TSG101 blk	Rango release inh	TDP1 inh	Rango complex inh	ClpP mod	12-LOX inh
C=C(C)CN(C)C(=O)Cc1c2c(n(Cc3ccccc3F)c1C)CCCC2=O	nt	nt	nt	nt	nt	i
CCOC(=O)c1ccc(NC(=O)c2nsc3ccccc23)cc1	nt	nt	i	nt	i	45µM
CC(C)(C)c1ccc(C(CC(=O)O)NC(=O)c2ccccc2)cc1 (stereo unspecified)	nt	nt	nt	nt	nt	i
CCOC(=O)Cn1nc(/C=C/c2ccc(C(C)C)cc2)ccc1=O	i	i	i	i	28µM	i
Cn1nc(/C=C/c2ccccc2)ccc1=O	i	i	i	i	nt	i
CCOC(=O)Cn1nc(/C=C/c2ccccc2)ccc1=O	i	i	i	?	?	i
